Source: ChEMBL document CHEMBL5034020, “Self-Masked Aldehyde Inhibitors: A Novel Strategy for Inhibiting Cysteine Proteases” (J Med Chem, 2021)

By UniProt entry, the sequences of proteins in these tests, tags left out. Where a name states a change or a piece, a line headed by the entry shows the natural chain unless it says otherwise.
UniProt P25779: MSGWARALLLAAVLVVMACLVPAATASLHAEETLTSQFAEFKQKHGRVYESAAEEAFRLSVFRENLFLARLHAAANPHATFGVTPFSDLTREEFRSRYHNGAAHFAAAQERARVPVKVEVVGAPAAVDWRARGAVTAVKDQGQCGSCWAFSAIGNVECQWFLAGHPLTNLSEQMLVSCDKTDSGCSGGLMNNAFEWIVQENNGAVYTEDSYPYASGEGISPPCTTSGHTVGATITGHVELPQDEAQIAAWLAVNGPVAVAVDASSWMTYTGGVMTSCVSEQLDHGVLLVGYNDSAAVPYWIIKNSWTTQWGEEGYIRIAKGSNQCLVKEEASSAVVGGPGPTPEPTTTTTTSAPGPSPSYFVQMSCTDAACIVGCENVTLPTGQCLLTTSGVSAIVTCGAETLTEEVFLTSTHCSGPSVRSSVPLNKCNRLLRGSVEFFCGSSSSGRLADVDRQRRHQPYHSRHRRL

Target: Cruzipain (Trypanosoma cruzi) (UniProt P25779)
Test: Time dependent inhibition of Trypanosoma cruzi cruzain using Cbz-Phe-Arg-AMC as substrate assessed as association rate constant for EI complex measured over 30 mins

For `CN1CCN(C(=O)N[C@@H](Cc2ccccc2)C(=O)N[C@H]2Cc3ccccc3OC2O)CC1` (stereo partly specified), the Ka was 1.8 10^-4/s.
